We go through one molecule from patent US9045445B2, “Glycine transporter-1 inhibitors, methods of making them, and uses thereof” (Albany Molecular Research, Inc., priority 2010, dated 2015).

Counter-ions that a name gives are not always drawn.

This assay deals with T1, glycine transporter-1 (GlyT-1) (Homo sapiens, UniProt P48067).
T1 construct: JAR cells (ATCC#HTB-144), which endogenously express GlyT-1; host or cells: JAR human choriocarcinoma cells
T1 sequence (P48067 1-706): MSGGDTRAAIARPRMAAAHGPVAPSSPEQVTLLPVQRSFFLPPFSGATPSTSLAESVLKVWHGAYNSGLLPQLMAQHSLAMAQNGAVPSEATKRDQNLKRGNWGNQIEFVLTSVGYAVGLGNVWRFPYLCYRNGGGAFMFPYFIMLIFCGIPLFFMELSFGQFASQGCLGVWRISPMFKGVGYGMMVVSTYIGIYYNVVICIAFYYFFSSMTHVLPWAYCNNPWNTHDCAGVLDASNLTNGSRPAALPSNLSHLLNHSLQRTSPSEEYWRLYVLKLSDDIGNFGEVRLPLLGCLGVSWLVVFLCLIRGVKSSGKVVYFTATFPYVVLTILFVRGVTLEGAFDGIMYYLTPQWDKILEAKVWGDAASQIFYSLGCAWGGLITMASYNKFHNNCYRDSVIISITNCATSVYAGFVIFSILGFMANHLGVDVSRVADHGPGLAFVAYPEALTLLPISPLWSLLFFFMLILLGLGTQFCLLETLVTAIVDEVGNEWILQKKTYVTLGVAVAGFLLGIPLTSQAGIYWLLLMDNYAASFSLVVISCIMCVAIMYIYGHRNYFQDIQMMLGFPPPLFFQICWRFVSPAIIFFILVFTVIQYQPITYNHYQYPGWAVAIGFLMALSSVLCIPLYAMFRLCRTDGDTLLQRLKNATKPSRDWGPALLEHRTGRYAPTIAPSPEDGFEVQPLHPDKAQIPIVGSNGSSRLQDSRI
Nature of the assay: [14C]glycine uptake assay in JAR cells endogenously expressing GlyT-1 (scintillation proximity). Format: cell-based. As to conditions: [14C]glycine 5 μM, 3 hour incubation. As for the experimental part:
The inhibitory activity of compounds of the invention against the glycine transporter-1 (GlyT-1) can be determined by the following scintillation proximity assay. The potency of each compound was assessed in inhibiting the uptake of radiolabeled glycine ([^14C]glycine) using the human choriocarcinoma cell line, JAR cells (ATCC#HTB-144), which endogenously express GlyT-1. In brief, 50,000 JARS cells were plated per well of tissue culture treated 96-well Cytostar-T plate (PerkinElmer) in RPMI media supplemented with 10% heat inactivated FBS and allowed to attach overnight at 37° C. and 5% CO2. Compounds were serially diluted 3-fold in DMSO generating a nine (9) data point response curve for each compound. Two replicates were performed per determination. The compounds were then diluted into Uptake Buffer (10 mM Hepes, 120 mM NaCl, 2 mM KCl, 1 mM CaCl2 and 1 mM MgCl2, 5 mM Alanine, pH 7.4) with a final DMSO concentration of 0.75% (v/v). […] Following a 3 hour incubation period at 37° C. and 5% CO2, the plates were sealed and placed at room temperature in the dark for 15 minutes prior to quantification of incorporated radioactivity using a MicroBeta Trilux scintillation plate reader (PerkinElmer). […]
(In general: In a scintillation proximity assay essentially only radioactivity close to the scintillant gives light.)

The molecule `CCCS(=O)(=O)N1CCN(C2(CNC(=O)c3ccccc3)CCCCC2)CC1` [compound 24, N-((1-(4-(Propylsulfonyl)piperazin-1-yl)cyclohexyl)methyl) benzamide Hydrochloride] displayed a 50% inhibitory concentration (IC50) of 782 nM.

The IC50 is the midpoint of a concentration-inhibition curve. A low value points to inhibition by little substance.
